# ChEMBL document CHEMBL3124839, “Polyamine transport inhibitors: design, synthesis, and combination therapies with difluoromethylornithine” (J Med Chem, 2014)
# Legend:
# Assay type in all cases: cell-based
# Homo sapiens [1] = organism: Homo sapiens; experiment: Inhibition of polyamine transport system in DFMO-treated human L3.6PL cells assessed as intracellular spermidine to spermine molar ratio at 7 uM after 48 hrs by HPLC analysis in presence of spermidine and aminoguanidine relative to control
# Homo sapiens [2] = organism: Homo sapiens; experiment: Inhibition of polyamine transport system in human L3.6PL cells assessed as intracellular spermidine to spermine molar ratio at 7 uM after 48 hrs by HPLC analysis in presence of spermidine and aminoguanidine relative to control
# Homo sapiens [3] = organism: Homo sapiens; experiment: Inhibition of polyamine transport system in human L3.6PL cells assessed as intracellular spermidine to spermine molar ratio at 7 uM after 48 hrs by HPLC analysis in presence of aminoguanidine relative to control
smiles,measurement,setting,value
CNCCCCNCCCCNCc1cc(CNCCCCNCCCCNC)cc(CNCCCCNCCCCNC)c1.Cl,Ratio,Homo sapiens [1],0.23
same,Ratio,Homo sapiens [2],1.5
same,Ratio,Homo sapiens [3],1.5
